Measurements taken from ChEMBL document CHEMBL4004825 (J Med Chem, 2017).

How the values were obtained:
[1] = target: T1, Tyrosine-protein kinase JAK3 (Homo sapiens, UniProt P52333); experiment: Inhibition of recombinant human GST-tagged cytoplasmic JAK3 catalytic domain (781 to 1124 residues) expressed in baculovirus expression system using FITC-KGGEEEEYFELVKK as substrate in presence of 1 mM ATP by microfluidic assay
T1 sequence (P52333 whole entry): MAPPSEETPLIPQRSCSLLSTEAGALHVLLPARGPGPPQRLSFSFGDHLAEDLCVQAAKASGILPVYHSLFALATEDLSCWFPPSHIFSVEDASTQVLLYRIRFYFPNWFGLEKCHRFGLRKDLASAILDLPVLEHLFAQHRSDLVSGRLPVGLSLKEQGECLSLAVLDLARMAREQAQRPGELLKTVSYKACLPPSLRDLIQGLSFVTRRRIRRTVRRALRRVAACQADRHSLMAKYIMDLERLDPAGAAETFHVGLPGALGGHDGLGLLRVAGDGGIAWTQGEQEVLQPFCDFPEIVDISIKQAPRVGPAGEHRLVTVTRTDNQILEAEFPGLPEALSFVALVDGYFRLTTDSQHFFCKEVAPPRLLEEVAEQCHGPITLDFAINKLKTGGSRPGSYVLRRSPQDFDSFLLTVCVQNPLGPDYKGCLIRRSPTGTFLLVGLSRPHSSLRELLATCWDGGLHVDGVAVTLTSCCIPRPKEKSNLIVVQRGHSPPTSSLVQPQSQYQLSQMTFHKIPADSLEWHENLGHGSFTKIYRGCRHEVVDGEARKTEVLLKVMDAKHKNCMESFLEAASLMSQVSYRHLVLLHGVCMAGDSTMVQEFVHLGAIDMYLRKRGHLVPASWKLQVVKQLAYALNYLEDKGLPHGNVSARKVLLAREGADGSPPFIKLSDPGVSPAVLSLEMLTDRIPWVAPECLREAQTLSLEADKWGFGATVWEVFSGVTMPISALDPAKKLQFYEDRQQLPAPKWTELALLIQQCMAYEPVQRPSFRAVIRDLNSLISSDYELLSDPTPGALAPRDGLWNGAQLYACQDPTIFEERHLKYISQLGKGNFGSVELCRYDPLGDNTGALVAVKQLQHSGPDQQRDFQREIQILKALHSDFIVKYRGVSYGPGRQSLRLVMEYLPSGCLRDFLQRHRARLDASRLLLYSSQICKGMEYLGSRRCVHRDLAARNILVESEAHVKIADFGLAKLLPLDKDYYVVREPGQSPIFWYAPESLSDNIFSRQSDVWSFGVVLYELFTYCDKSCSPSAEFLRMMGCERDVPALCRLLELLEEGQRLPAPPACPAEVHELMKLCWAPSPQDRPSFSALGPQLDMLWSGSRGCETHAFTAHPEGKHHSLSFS

[2] = target: T1, Tyrosine-protein kinase JAK3; experiment: Inhibition of JAK3 in human PBMC assessed as inhibition of IL-15 induced STAT5 phosphorylation preincubated for 75 mins followed by IL-15 addition and measured after 15 mins by Alexa Fluor 647 staining based flow cytometry
[3] = target: T1, Tyrosine-protein kinase JAK3; experiment: Inhibition of JAK3 in human whole blood assessed as inhibition of IL-15 induced STAT5 phosphorylation preincubated for 45 mins followed by IL-15 addition and measured after 15 mins by Alexa Fluor 647 staining based flow cytometric analysis
[4] = target: T1, Tyrosine-protein kinase JAK3; experiment: Inhibition of recombinant human GST-tagged cytoplasmic JAK3 catalytic domain (781 to 1124 residues) expressed in baculovirus expression system using FITC-KGGEEEEYFELVKK as substrate in presence of 4 uM ATP by microfluidic assay
[5] = target: T2, Tyrosine-protein kinase ITK/TSK (Homo sapiens, UniProt Q08881); experiment: Inhibition of full length recombinant human GST-tagged cytoplasmic ITK expressed in baculovirus expression system by KT236 probe based TR-FRET assay
T2 sequence (Q08881 whole entry): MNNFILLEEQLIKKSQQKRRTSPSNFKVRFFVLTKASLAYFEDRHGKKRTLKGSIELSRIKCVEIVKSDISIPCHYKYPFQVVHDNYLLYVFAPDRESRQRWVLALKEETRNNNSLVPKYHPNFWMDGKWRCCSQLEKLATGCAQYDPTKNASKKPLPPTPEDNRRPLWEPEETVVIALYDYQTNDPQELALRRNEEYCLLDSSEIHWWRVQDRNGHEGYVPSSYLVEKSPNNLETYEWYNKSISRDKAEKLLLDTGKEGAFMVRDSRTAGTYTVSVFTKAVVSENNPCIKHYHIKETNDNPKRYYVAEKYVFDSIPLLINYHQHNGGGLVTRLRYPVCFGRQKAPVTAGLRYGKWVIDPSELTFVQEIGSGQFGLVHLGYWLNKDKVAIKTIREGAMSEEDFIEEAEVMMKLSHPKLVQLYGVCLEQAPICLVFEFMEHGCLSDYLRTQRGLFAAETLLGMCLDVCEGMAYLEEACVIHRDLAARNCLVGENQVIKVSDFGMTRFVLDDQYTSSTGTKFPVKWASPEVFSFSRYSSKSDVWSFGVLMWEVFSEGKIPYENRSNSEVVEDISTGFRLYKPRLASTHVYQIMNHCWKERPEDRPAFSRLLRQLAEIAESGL

| IC50 [1] | IC50 [2] | IC50 [3] | IC50 [4] | Ki [5] | SMILES |
| --- | --- | --- | --- | --- | --- |
| 47 nM | 116 nM | 399 nM | 0.4 nM | – | C=CC(=O)N1CC[C@H]2CCN(c3ncnc4[nH]ccc34)[C@H]2C1 |
| – | – | – | – | 26.9 nM | C=CC(=O)N1C[C@H](Nc2ncnc3[nH]ccc23)CC[C@@H]1C [RITLECITINIB] |
